Values of other authors as cited in article PMC11747885, “Potent inhibitors of the human RNA ligase Rlig1 highlights its role in RNA integrity maintenance under oxidative cellular stress” (Chemical Science, 2025).

Target: human topoisomerase II
Design: method as in MedChemExpress
Conditions: ref MedChemExpress; cited from earlier work

COc1cccc2c1C(=O)c1c(O)c3c(c(O)c1C2=O)C[C@@](O)(C(=O)CO)C[C@@H]3O[C@H]1C[C@H](N)[C@H](O)[C@H](C)O1.Cl [Doxorubicin (hydrochloride)]
IC50: 2670 nM
